An excerpt weighted towards active compounds, which were near 4.2% of everything screened.
ALR H2O2 inh – inhibitors of human ALR sulfhydryl oxidase, primary screen, biochemical, H2O2 detection, HRP-luminol luminescence, single point; FAD-linked sulfhydryl oxidase ALR (Homo sapiens), P55789; purified ALR, DTT oxidation; inhibition, % (test concentration not listed); 290,000 tested, 3.8% active; AID 485317, 2010;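 active = mean and each replicate at 75% or more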;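 note: stock transfer was 7.5 nL into about 7.5 µL; 0% = neutral wells and 100% = wells with inactivated enzyme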
HDAC3 inhib – HDAC3 deacetylase inhibitors, primary screen, biochemical, fluorescence, cell-free homogeneous | Histone deacetylase 3 (Homo sapiens), O15379 | recombinant HDAC3, fluorogenic peptide/trypsin coupled | inhibition, % at 8.3 µM | 0.15% of 320,000 active; in the data active = inhibition above about 26%, passing the limit was not always enough; inconclusive = no clear call, values can overlap the other calls
Yeast UUG start – alters start codon recognition fidelity in yeast; AID 602363; activity score, % at 18.7 µM; 350,000 tested, 0.13% active; S. cerevisiae UUG-firefly luciferase reporter, luminescence/redox ratio;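 active means replicate mean at a twofold rise or more, about +100% in these data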;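 further: firefly luciferase made from a UUG start codon reports start codon fidelity; reporter light over untreated wells divided by growth signal over untreated wells; some hits fall short of that in this replicate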
MC4R antagonist – MC4R antagonists of cAMP signaling, primary screen, cell-based, TR-FRET, antagonist arm of biased-ligand search; inhibition, % at 6.5 µM; MC4R-expressing cells, MTII-stimulated cAMP, LANCE TR-FRET; 0.48% of 360,000 active;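 active = inhibition above its plate's cutoff, the mean of tested wells on that plate plus 3 SD, cut at about 29% in these data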;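 also: 0% = Melanotan II alone and 100% = Melanotan II plus saturating MCL0020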
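Assay system: human MC4R-expressing U2OS cells; reagent: Melanotan II stimulation of cells; dosing: 6.5 µM single dose; timing: compound 30 min, challenge 1 h, detection 1 h; signal: TR-FRET cAMP assay; replicates: one well per compound, no replicates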
MC4R ag barr – MC4R agonists recruiting beta-arrestin, primary screen, cell-based, luminescence, agonist arm of biased-ligand search | U2OS MC4R beta-arrestin complementation; percent of melanotan II response, DMSO zero | 0.98% of 360,000 active | activation, % at 8.9 µM | Melanocortin receptor 4 (Homo sapiens), P32245;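 active = activation above a per-plate cutoff, the mean activation of sample wells on that plate plus 3 SD, cut at about 8% in these data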
NALP1 inh – NALP1 inflammasome inhibitors in reconstituted yeast, colorimetric, S. cerevisiae, triplicate retest. S. cerevisiae NALP1/ASC/caspase-1 growth, X-gal OD620, 72 h. inhibition, % at 10 µM. 0.61% of 280,000 active; in the data active = inhibition mostly above about 24%, no sharp cut-off; inactive = mostly below about 32%
* hit, by the source's call; ? = inconclusive; nt = no result.

The chains behind the UniProt entries cited, without tags or fusion partners.
Melanocortin receptor 4 (Homo sapiens), P32245, UniProt P32245, whole entry, looked up: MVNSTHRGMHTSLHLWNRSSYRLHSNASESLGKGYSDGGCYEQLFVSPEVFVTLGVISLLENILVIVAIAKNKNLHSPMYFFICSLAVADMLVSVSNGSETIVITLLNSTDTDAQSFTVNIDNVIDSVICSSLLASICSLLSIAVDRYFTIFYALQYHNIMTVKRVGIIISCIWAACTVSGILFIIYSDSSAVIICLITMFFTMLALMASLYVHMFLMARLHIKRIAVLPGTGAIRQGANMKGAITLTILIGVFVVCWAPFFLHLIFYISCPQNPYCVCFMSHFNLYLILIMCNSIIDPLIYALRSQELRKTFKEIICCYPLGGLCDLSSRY

1) Cc1ccc(Cl)cc1N1CCN(S(=O)(=O)c2ccc(-c3ccc(=O)[nH]n3)o2)CC1
2) COCC(=O)N1CCCCN2[C@H](CO)[C@H](c3ccc(C#Cc4cccnc4)cc3)[C@@H]2C1
3) CNC(=O)C[C@@H]1CC[C@H]2[C@H](COc3ccc(NC(=O)c4cnccn4)cc3C(=O)N2C)O1
4) CCn1c(SCC(=O)Nc2ccc(C)cc2)nc(O)cc1=O
5) CCCn1c(SCC(=O)Nc2cccc(F)c2)nc(O)cc1=O
6) C=CCn1c(SCC(=O)Nc2ccc(Br)cc2)nc(O)cc1=O
7) COc1ccc(S(=O)(=O)N2CC[C@@H]3[C@H]2c2cc(-c4ccc(C#N)cc4)ccc2N[C@@H]3CO)cc1
8) COc1ccc(CCN2C(=O)CC(NNC(=O)c3cccc(O)c3)C2=O)cc1 (stereo not given)

| assay / compound | 1 | 2 | 3 | 4 | 5 | 6 | 7 | 8 |
| --- | --- | --- | --- | --- | --- | --- | --- | --- |
| MC4R antagonist | 6.0 | nt | nt | 9.4 | -1.7 | 18.5 | nt | -0.7 |
| ALR H2O2 inh | -3.8 | nt | nt | 98.9* | 99.4* | nt | nt | 95.0* |
| Yeast UUG start | nt | -6.2 | -2.0 | -17.4 | -5.3 | -26.0 | -28.1 | 0.9 |
| NALP1 inh | 12.0 | nt | nt | nt | nt | nt | nt | 5.5 |
| HDAC3 inhib | 4.3 | nt | nt | -2.3 | 2.9 | nt | nt | 0.7 |
| MC4R ag barr | 2.0 | nt | nt | 0.0 | -2.0 | -1.6 | nt | 2.5 |

Arranged by the number under ALR H2O2 inh (rising): 3 of the compounds above
no.	SMILES	MC4R antagonist	ALR H2O2 inh	Yeast UUG start	NALP1 inh	HDAC3 inhib	MC4R ag barr
1	Cc1ccc(Cl)cc1N1CCN(S(=O)(=O)c2ccc(-c3ccc(=O)[nH]n3)o2)CC1	6.0	-3.8	nt	12.0	4.3	2.0
8	COc1ccc(CCN2C(=O)CC(NNC(=O)c3cccc(O)c3)C2=O)cc1 (stereo not given)	-0.7	95.0*	0.9	5.5	0.7	2.5
5	CCCn1c(SCC(=O)Nc2cccc(F)c2)nc(O)cc1=O	-1.7	99.4*	-5.3	nt	2.9	-2.0

Additional results.
9) COc1ccc(-c2cc(C(=O)Nc3cc(C)n(Cc4ccc(Cl)cc4)n3)no2)cc1OC
10) CCC(CO)[n+]1c(C)cc(/C=C2\Sc3ccccc3N2Cc2ccccc2)cc1C (stereo not given)
11) CCN1/C(=C2\SC(=S)N(Cc3ccccc3)C2=O)Sc2ccccc21
12) Cn1c(=S)[nH]c2cccnc21
13) c1ccc2c(CSc3ncnc4nc[nH]c34)cccc2c1
14) c1ccc(CCSc2ncnc3nc[nH]c23)cc1
15) C[C@H](CO)N1C[C@H](C)[C@H](CN(C)Cc2ccc(C(F)(F)F)cc2)Oc2ccc(NC(=O)Nc3ccc(C(F)(F)F)cc3)cc2CC1=O
16) O=C(Nc1ccccc1)N1CCCCN2[C@@H](CO)[C@@H](c3ccc(C#Cc4ccccn4)cc3)[C@@H]2C1

| assay / compound | 9 | 10 | 11 | 12 | 13 | 14 | 15 | 16 |
| --- | --- | --- | --- | --- | --- | --- | --- | --- |
| MC4R antagonist | 5.8 | 4.8 | 16.8 | -0.5 | -0.4 | -5.4 | nt | nt |
| ALR H2O2 inh | 7.8 | 98.2* | nt | 96.7* | 98.2* | -16.3 | nt | nt |
| Yeast UUG start | -15.9 | 3.5 | nt | -23.1 | nt | -21.6 | -6.9 | 9.1 |
| NALP1 inh | 19.1 | 27.9 | 12.5 | 0.9 | -1.0 | 29.5 | nt | nt |
| HDAC3 inhib | -6.4 | 26.3* | -2.0 | 6.0 | nt | -1.1 | nt | nt |
| MC4R ag barr | 24.3* | -0.7 | 1.3 | -0.1 | -0.8 | -1.7 | nt | nt |

17) O=C1C=C(Nc2ccc(O)cc2)CC(c2ccco2)C1 (stereo not given)
18) CCOC(=O)c1ccc(NC2=CC(=O)CC(c3ccco3)C2)cc1 (stereo not given)
19) Cc1ccc(N2C(=O)CC(Sc3ncccc3C(=O)O)C2=O)cc1 (stereo not given)
20) O=C(O)c1ccccc1SC1CC(=O)N(c2ccc3c(c2)OCO3)C1=O (stereo not given)
21) Cc1cc(C)cc(N2C(=O)CC(Sc3ccccc3C(=O)O)C2=O)c1 (stereo not given)
22) Cc1cccc(N2C(=O)CC(Sc3ccccc3C(=O)O)C2=O)c1 (stereo not given)
23) CN(C)c1ccc(N2C(=O)CC(Sc3ccccc3C(=O)O)C2=O)cc1 (stereo not given)
24) Cc1ccc(N2C(=O)CC(Sc3ccccc3C(=O)O)C2=O)cc1C (stereo not given)
25) Cc1ccc(N2C(=O)CC(Sc3ccccc3C(=O)O)C2=O)cc1 (stereo not given)
26) CC(=O)N(C)C[C@H]1Oc2cc(-c3ccc(C#N)cc3)ccc2S(=O)(=O)N([C@H](C)CO)C[C@@H]1C
27) C[C@@H]1CN([C@H](C)CO)C(=O)Cc2cc(NC(=O)CCC(F)(F)F)ccc2O[C@@H]1CN(C)Cc1ccc(C(=O)Nc2ccccc2N)cc1

| assay / compound | 17 | 18 | 19 | 20 | 21 | 22 | 23 | 24 | 25 | 26 | 27 |
| --- | --- | --- | --- | --- | --- | --- | --- | --- | --- | --- | --- |
| MC4R antagonist | 11.6 | 2.4 | -0.4 | 20.2 | 2.0 | 18.2 | 3.0 | 22.4 | 6.1 | nt | nt |
| ALR H2O2 inh | 99.0* | -0.4 | nt | -7.9 | 0.2 | -3.4 | 51.1 | 5.4 | 4.5 | nt | nt |
| Yeast UUG start | -0.9 | nt | nt | -8.5 | nt | -11.0 | nt | nt | nt | 1.5 | -5.2 |
| NALP1 inh | -31.3 | 13.2 | 2.6 | 13.0 | 10.2 | 78.2* | 52.2* | 35.7* | 63.3* | nt | nt |
| HDAC3 inhib | ? | 6.5 | 10.8 | -1.3 | -0.2 | 8.8 | -4.9 | -9.0 | -16.2 | nt | nt |
| MC4R ag barr | 0.1 | 2.7 | -2.5 | 0.9 | 0.3 | -0.3 | -0.9 | -2.7 | 0.5 | nt | nt |

Source: PubChem
